Experimental data as given in patent publication US11535610B2, “Acid addition salts of benzimidazole derivative” (HK INNO.N CORPORATION, priority 2016, dated 2022).

Conditions: room temperature; supersaturation method; solubility of acid addition salt per se, not converted to free base

- Water solubility: 52 mg/mL
Substance: Fumaric acid
